Results on three molecules are retold here after US6686370B2, “Triazospiro compounds having nociceptin receptor affinity” (Euro-Celtique S.A., priority 1999, dated 2004).

Amino acid sequences for entries named in this document (tags omitted).
UniProt P35372, whole entry: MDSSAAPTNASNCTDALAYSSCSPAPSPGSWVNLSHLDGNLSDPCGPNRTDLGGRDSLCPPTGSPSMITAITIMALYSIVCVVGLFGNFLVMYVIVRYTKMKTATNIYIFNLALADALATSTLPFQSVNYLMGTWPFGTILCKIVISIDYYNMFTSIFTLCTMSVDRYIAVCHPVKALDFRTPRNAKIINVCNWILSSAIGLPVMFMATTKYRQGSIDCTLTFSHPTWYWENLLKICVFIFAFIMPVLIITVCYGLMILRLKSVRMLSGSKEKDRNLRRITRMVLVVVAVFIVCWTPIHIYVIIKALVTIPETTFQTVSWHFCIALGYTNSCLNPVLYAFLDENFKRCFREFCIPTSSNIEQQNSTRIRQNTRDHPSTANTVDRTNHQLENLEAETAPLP
UniProt P41145, whole entry: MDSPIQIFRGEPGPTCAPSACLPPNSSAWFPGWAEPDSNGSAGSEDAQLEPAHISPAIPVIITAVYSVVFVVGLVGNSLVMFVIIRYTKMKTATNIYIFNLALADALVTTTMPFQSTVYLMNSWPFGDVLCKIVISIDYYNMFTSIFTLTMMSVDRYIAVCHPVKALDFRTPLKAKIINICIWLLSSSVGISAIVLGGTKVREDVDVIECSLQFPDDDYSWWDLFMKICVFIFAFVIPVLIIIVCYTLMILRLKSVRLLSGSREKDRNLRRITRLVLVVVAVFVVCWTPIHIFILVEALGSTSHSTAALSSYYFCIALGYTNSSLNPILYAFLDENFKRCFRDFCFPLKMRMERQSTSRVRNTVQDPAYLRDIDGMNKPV
UniProt P41146, whole entry: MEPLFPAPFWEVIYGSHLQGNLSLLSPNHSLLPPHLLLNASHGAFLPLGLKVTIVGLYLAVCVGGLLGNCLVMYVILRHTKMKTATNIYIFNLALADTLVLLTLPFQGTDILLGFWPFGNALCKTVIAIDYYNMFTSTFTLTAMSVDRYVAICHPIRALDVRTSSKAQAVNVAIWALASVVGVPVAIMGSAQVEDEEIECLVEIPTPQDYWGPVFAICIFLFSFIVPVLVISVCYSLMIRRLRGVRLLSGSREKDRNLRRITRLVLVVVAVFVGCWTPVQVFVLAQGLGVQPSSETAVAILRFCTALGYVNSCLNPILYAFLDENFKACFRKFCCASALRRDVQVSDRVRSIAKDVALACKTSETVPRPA

The structures appear in SMILES notation.

One test addresses Mu opioid receptor (Homo sapiens, UniProt P35372). Briefly: [35S]GTPγS binding assay, affinity at the μ receptor. Type of test: biochemical. To be noted: read-out: calc Ki μ; mu opioid receptor membranes.
For a further test, the target named is kappa opioid receptor (Homo sapiens, UniProt P41145). Kind of test: [35S]GTPγS binding assay, affinity at the k receptor. The test is classed as biochemical. Particulars: read-out: calc Ki k; kappa opioid receptor membranes.
Test [1] addresses delta opioid receptor (δ2) (Homo sapiens, UniProt P41143). Kind of test: [35S]GTPγS binding assay, affinity at the δ receptor. The test is classed as biochemical. To be noted: read-out: calc Ki δ2; delta opioid receptor membranes.
Test [2] concerns the target human opioid receptor-like receptor (ORL-1) (Homo sapiens, UniProt P41146). Briefly: Functional [35S]GTPγS binding assay, nociceptin affinity at the ORL1 receptor. Particulars: read-out: Nociceptin Affinity calc Ki; membranes from recombinant HEK-293 cells expressing human ORL-1.

For `O=C1NCN(c2ccccc2)C12CCN(CCC(c1ccccc1)c1ccccc1)CC2`, the Ki at Mu opioid receptor was 0.32 nM; at kappa opioid receptor, 478 nM; in test [1], 3900 nM; in test [2] it was 56 nM.

For `CC(C)CCC(C)N1CCC2(CC1)C(=O)NCN2c1ccccc1` (stereo not drawn), the Ki on Mu opioid receptor was 3.4 nM; at kappa opioid receptor, 257 nM; in test [1] it was 3260 nM; in test [2], 36.8 nM.

For the molecule `CCCC1CCC(N2CCC3(CC2)C(=O)NCN3c2ccccc2)CC1` (stereo not drawn), the inhibition constant Ki was 2.6 nM on Mu opioid receptor, 1800 nM at kappa opioid receptor, above 10000 nM in test [1] and 20.1 nM in test [2].
